## Measured affinities in a library of Ab-14 light chain variants

Reference: Li et al. 2023, doi:10.1038/s41467-023-39022-2. File: FLAb, binding data.

Target: peptide PDVDLGDISGINAS, taken from heptad repeat 2 (HR2) of SARS-CoV-2 spike.

Parent scFv Ab-14: VH joined to VL by the linker GGGGSGGGGSGGGGS. Changes lie in the light chain CDRs alone.
VH: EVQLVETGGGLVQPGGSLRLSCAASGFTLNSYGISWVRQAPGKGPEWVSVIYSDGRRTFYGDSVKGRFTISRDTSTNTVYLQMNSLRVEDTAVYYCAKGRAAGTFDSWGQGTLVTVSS
VL: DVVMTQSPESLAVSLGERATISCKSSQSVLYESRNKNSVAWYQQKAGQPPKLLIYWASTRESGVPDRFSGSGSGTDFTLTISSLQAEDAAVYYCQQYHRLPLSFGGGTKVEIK

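Phage display of a naive human antibody library on the peptide gave the parent. This is the validation round: designs drawn from the data on random variants, tested in the same kind of assay. Their group label is 14L_GP_HC (GP: Gaussian process model; HC: hill climbing; a sequence that several methods proposed may carry one label only). AlphaSeq pools MATa yeast showing the antibodies with MATalpha yeast showing the peptide. Pairs that bind mate more often; barcode pairs of the diploids are counted by sequencing. Scores were corrected for input abundance and mapped to Kd with protein pairs of known affinity run in the same pool. There are six technical replicates.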

Variants are written as CDR1, CDR2 and CDR3 of the light chain (limits as in the source). Parent: KSSQSVLYESRNKNSVA, WASTRES, QQYHRLPLS. Scale: log10 of Kd in nM, estimated from mating counts; low values are strong binders. Where no diploid with the target was found in that replicate, the entry reads "ND": below detection, most likely a poor binder, though not proof of it. The authors averaged sequences with at least three values out of six and counted those with two or fewer as poor binders. Background: pairings of all light chain designs with three empty control strains gave a value in 4% of cases (median 2.64, 5th percentile 1.59). Values in that range, when seen in few replicates, are hard to tell from nonspecific mating. Also given: how often the same scFv was detected with the empty control strains, with their mean in brackets. A sequence measured in both rounds can read differently, since the two assays cover different ranges.

CDR-L1	CDR-L2	CDR-L3	replicates, log10 nM	control signals
KQSISYLGESRNKNSVA	EASTRES	QQYHRLPLS	0.26 / 0.37 / 0.18 / 0.04 / 0.23 / 0.36	1 of 18 (3.19)
NSSQSWLYESRNKNSVA	GGNTRED	QQYHRLPLS	1.05 / 0.71 / 0.80 / 0.33 / 0.28 / 0.74	0 of 18
KLSQSYLYESMNKNSVA	EASTRES	QQYHRLPLS	-0.11 / 0.05 / -0.40 / -0.31 / -0.05 / 0.01	4 of 18 (1.93)
KISQSWLYESRNKNSVA	GASTREV	QQYHRLPLS	-0.26 / -0.30 / -0.22 / -0.17 / -0.36 / -0.06	1 of 18 (2.50)
KSSMSYLYESRNKNSVA	AASTRES	QQYHRLPLS	0.71 / 0.68 / 0.67 / 0.56 / 0.41 / 0.47	0 of 18
KQSGSQLCESRNKNSVA	DASTRES	QQYHRLPLS	0.06 / 0.03 / -0.10 / 0.06 / 0.02 / 0.09	2 of 18 (3.13)
KSTISYLYESRNKNSVA	AASTRES	QQYHRLPLS	0.31 / 0.06 / 0.17 / -0.22 / 0.52 / 0.64	1 of 18 (2.77)
KSYPSVLYESRNKNSVA	NASTRES	QQYHRLPLQ	ND / ND / ND / ND / ND / 2.36	0 of 18
KSSQSVKYESRNKNSVA	DASTRES	QQYHRLPLS	ND / ND / 0.58 / 1.32 / 1.43 / 0.28	0 of 18
KLTQSTLYESRNKNSVA	WASTRLS	QQYHRLPLS	1.14 / 0.52 / 0.82 / 0.33 / 0.55 / 0.62	0 of 18
KSSQSWLYESRNKNSVA	GASTREN	QQYHRLPLS	-0.48 / -0.54 / -0.69 / -0.63 / -0.57 / -0.50	0 of 18
KLQQSQEYESRNKNSVA	HASTRLS	QQYHRLPLS	0.59 / 0.77 / 0.68 / 0.39 / 0.83 / 0.98	0 of 18
KSSGSYLYESMNKNSVA	NGSTRES	QQYHRLPLS	0.33 / 0.35 / -0.10 / -0.02 / 0.25 / 0.37	1 of 18 (2.03)
KSSQSFYYESRNKNSVA	GASTRES	QQYHRLPLS	0.31 / 0.50 / -0.03 / -0.25 / 0.62 / 0.10	0 of 18
KVSQSVLYESRHKNSVA	NASTRES	QQYHRLPLS	0.38 / 0.77 / 0.36 / 0.42 / 0.10 / 0.43	0 of 18
KSSFSYLGESRNKNSVA	EASTRES	QQYHRLPLS	0.27 / -0.05 / -0.04 / -0.33 / -0.12 / 0.23	3 of 18 (2.95)
KQSQSVLYESRNKNAVA	EASTRES	QQYHRLPLS	0.24 / 0.48 / 0.18 / 0.20 / 0.64 / 0.61	1 of 18 (2.20)
KTPQGVLYESRNKNSVA	QASVRES	QQYHRLPLS	0.54 / -0.02 / 0.19 / 0.11 / -0.02 / 0.12	1 of 18 (4.32)
KQSQSDLGESRNKNSVA	DASTRES	QQYHRLPLS	0.15 / -0.34 / -0.14 / -0.28 / -0.39 / -0.06	0 of 18
KFSQSQLYESRNKNSVA	GASTRES	QQYHRLTLS	-0.06 / -0.12 / 0.13 / -0.04 / -0.12 / 0.12	0 of 18
KSSQSFLYESRNFNSVA	HASTRES	QQYHRLPLS	0.28 / 0.65 / 0.40 / 0.51 / 0.10 / 0.29	1 of 18 (2.42)
KVSQSVLYESRMKNSVA	DASTRCS	QQYHRLPLE	-0.07 / -0.05 / -0.15 / -0.37 / -0.21 / -0.03	0 of 18
KIQQSVLYESRNKNNVA	HASTRED	QQYHRLPLS	-0.30 / -0.13 / -0.33 / -0.18 / -0.18 / -0.08	0 of 18
KSSQSDLYESRNKNSVA	GASTRES	QNYHRLPLS	0.54 / 0.48 / 0.49 / 0.48 / 0.38 / 0.59	2 of 18 (3.03)
KLSNSVLYESRNKNSVA	NASTRES	QQYHRLPLS	ND / ND / ND / ND / ND / ND	0 of 18
KLRQSGLYESRNKNSVA	QASTRES	QQYHRLPLS	0.50 / 0.57 / 0.59 / 0.43 / 0.76 / 0.61	0 of 18
KLQQQWLYESRNKNSVA	SASTREL	QQYHRLPLS	0.21 / 0.45 / 0.27 / 0.30 / 0.48 / 0.20	1 of 18 (3.32)
KFSQSDLYESRMKNSVA	NASTRES	QQYHRLPLS	0.41 / 0.29 / -0.04 / -0.07 / 0.41 / -0.13	0 of 18
KLQQSWLYESRNKNSVA	GGSTRES	QQYHRLPLS	0.20 / 0.31 / 0.27 / 0.10 / 0.25 / 0.27	3 of 18 (2.94)
KLRMSWLYESRNKNSVA	NASTRES	QQYHRLPLS	0.36 / 0.11 / 0.14 / 0.10 / 0.14 / 0.35	2 of 18 (2.91)
KSSQSWLYESRNKNSVA	DASVRES	QQYHRLPLS	0.15 / -0.14 / -0.20 / -0.64 / -0.30 / -0.25	0 of 18
KSSQSWLYESRNKNSVA	GASAREV	QQYHRLPLS	1.28 / 0.49 / 0.56 / 0.61 / 0.76 / 0.54	0 of 18
HVSQSVLYESRNKNSVA	DASTRES	QQYHRLPLS	0.04 / -0.19 / -0.19 / -0.23 / -0.29 / -0.28	1 of 18 (2.66)
KLMQSDLYESRNKNSVA	HASLRED	QQYHRLPLS	1.22 / 0.60 / 0.28 / 0.48 / 0.67 / 0.61	0 of 18
KSSQSWYYEDRVKNSVA	GASTRES	QQYHRLPLS	0.06 / 0.39 / 0.26 / 0.23 / 0.45 / 0.62	0 of 18
KSSISQLYESRNKNSVA	AASTRES	QQYHRLPLS	0.62 / 0.79 / 0.68 / 0.07 / 0.51 / 0.82	0 of 18
KLRQSTEYESRNKNSVA	WASTRLS	QQYHRLPLS	0.60 / 0.99 / 0.68 / 0.30 / 0.31 / 0.47	3 of 18 (2.85)
KQSQSGLYESRNKNSVA	DASTRES	QQYHRLPLD	0.49 / 0.83 / 0.45 / 0.43 / 0.54 / 0.68	0 of 18
KSSDVYLYESRNKNSVA	GASTRES	QQYHRLPLS	0.08 / 0.15 / -0.10 / -0.23 / 0.09 / 0.38	1 of 18 (1.75)
LSSISYLYESVNKNSVA	EASTRES	QQYHRLPLS	0.88 / 1.09 / 1.09 / 1.15 / 1.38 / 1.10	0 of 18
KFSQSVLYESRTKNSVA	NASTRNS	QDYHRLPLS	1.15 / 0.61 / 0.91 / 0.30 / 0.64 / 0.75	0 of 18
KSQQSWLYESRNKNSVA	HASTREQ	QQYHRLPLS	0.14 / -0.03 / -0.52 / -0.40 / -0.11 / -0.18	0 of 18
KSSTSWLYESRNKNPVA	GASQRES	QQYHRLPLS	0.51 / 0.67 / 0.56 / 0.19 / 0.10 / 0.37	0 of 18
KTPQSVLYESRNKNSVA	GASVRES	QQYHRLPLS	-0.03 / -0.16 / -0.36 / -0.26 / -0.26 / -0.23	0 of 18
KYSQSWLYESRNKNSVA	GASTREN	QQYHRLPLS	0.32 / 0.18 / 0.40 / -0.10 / 0.14 / 0.16	0 of 18
KLSQSWLYESRNKNPVA	GASFRES	QQYHRLPLS	1.71 / 1.38 / 1.46 / 1.83 / 1.09 / 1.29	0 of 18
HSSPSVLYESRNKNSVA	KASTRES	QQYHRLPLS	0.76 / 0.58 / 0.67 / 0.90 / 0.94 / 0.94	1 of 18 (2.11)
KSSQSVDYQSRNKNSVA	DASTRES	QQYHRLPLS	0.09 / 0.17 / -0.20 / 0.11 / -0.13 / 0.24	0 of 18
KFSQKVLYEGRTKNSVA	NGSTRES	QQYHRLPLS	0.10 / -0.14 / 0.07 / -0.09 / -0.04 / 0.04	1 of 18 (3.05)
KSSISYLTEKRNKNSVA	EASTRES	QQYHRLPLS	0.32 / 0.44 / 0.39 / 0.22 / 0.19 / 0.47	1 of 18 (2.24)
KFSQSVLYESRMKNSVA	DASTRCS	QQYHRLPLS	0.18 / 0.26 / 0.09 / -0.21 / 0.07 / 0.25	0 of 18
SLMQSVLYESRNKNSVA	HASVRED	QQYHRLPLS	-0.03 / -0.03 / -0.16 / 0.08 / 0.08 / 0.14	0 of 18

Top 4 of the variants detected in all replicates, tightest first:

CDR-L1	CDR-L2	CDR-L3	replicates, log10 nM	control signals
KSSQSWLYESRNKNSVA	GASTREN	QQYHRLPLS	-0.48 / -0.54 / -0.69 / -0.63 / -0.57 / -0.50	0 of 18
KSSQSWLYESRNKNSVA	DASVRES	QQYHRLPLS	0.15 / -0.14 / -0.20 / -0.64 / -0.30 / -0.25	0 of 18
KISQSWLYESRNKNSVA	GASTREV	QQYHRLPLS	-0.26 / -0.30 / -0.22 / -0.17 / -0.36 / -0.06	1 of 18 (2.50)
KTPQSVLYESRNKNSVA	GASVRES	QQYHRLPLS	-0.03 / -0.16 / -0.36 / -0.26 / -0.26 / -0.23	0 of 18